Literature values as cited in patent US8440787B2, “Hydroxyapatite-targeting multiarm polymers and conjugates made therefrom” (Nektar Therapeutics, priority 2007, dated 2013).

Settings: in vivo; Modi et al. (2000) Hepatology 32:371A

PEGASYS: PEG interferon marketed under the PEGASYS brand; pegylated (40 kDa) interferon alpha-2a
PEG associated with the conjugate cleared by cleavage of a urethane bond: up to 30%
